“And” between values parts separate entries of the source, which are not always exact repeats. Equal values may be shown once. Read-outs that look alike come from different tables or passages of the source.
How the values were obtained:
eIF1A-RPS10 interaction = eIF1A-RPS10 interaction (Homo sapiens, UniProt P46783+P47813); test: Split-Renilla luciferase eIF1A-RPS10 interaction screen, dose-response; format: biochemical; details: read-out: IC50 concentration (µM), IC50 screen; summary table
[1] = tested on: IRF7 5'UTR firefly luciferase reporter in HEK293T cells;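 also: luciferase signal corrected by a co-transfected GFP reporter for transfection efficiency, read after overnight compound exposure, with Long and Short reporters differing in 5'UTR length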
[2] = tested on: uORF-bearing 5'UTR firefly reporters in HEK293T cells; test: uORF reinitiation / leaky scanning firefly reporters
[3] = target: eIF1A-RPS10 interaction in HEK293T cells (Homo sapiens, UniProt P46783+P47813); test: Proximity ligation assay (PLA); format: cell-based; details: 3 h
eIF1A = eIF1A (Homo sapiens, UniProt P47813)
[4] = tested on: CUG/GUG vs AUG start codon luciferase reporters in HEK293T cells; test: Near-cognate AUG starting codon fidelity reporter assay (GUG, CUG vs AUG); format: cell-based
RPS10 = RPS10 (Homo sapiens, UniProt P46783)
[5] = tested on: luciferase reporter mRNA in HEK293T cells; test: Reporter gene mRNA levels by qPCR after 1Ais treatment; format: cell-based; details: five reporter genes

By UniProt entry, the sequences of proteins in these tests, tags left out.
UniProt P47813, whole entry: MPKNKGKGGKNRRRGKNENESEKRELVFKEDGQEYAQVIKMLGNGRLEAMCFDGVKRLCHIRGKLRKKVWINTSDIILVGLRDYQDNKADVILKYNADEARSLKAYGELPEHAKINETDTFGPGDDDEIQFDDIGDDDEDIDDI

Structure (SMILES): COc1cc2nccc(Oc3ccc(NC(=O)Nc4cc(C)on4)c(Cl)c3)c2cc1OC
- IC50 (eIF1A-RPS10 interaction): 14 µM
- IRF7 5'UTR reporter translation [1]: selectively decreased translation from IRF7 5'UTR
- Reference vs IRF7 (Final data, Fig. 1E) ([1]; 1/Result, relative to DMSO, 20 µM): 2.739
- Long (Summary - top 3 1Ais), normalized to DMSO ([1]; Long reporter, 20 µM, individual replicates, DMSO = 1, listed as 4927): 0.39 and 0.21 and 0.14 (2×)
- LONG (summary - All), normalized to DMSO ([1]; Long reporter, 20 µM, individual replicates, outliers excluded, DMSO = 1, listed as 4927): 0.39 and 0.21 and 0.14 (2×)
- SHORT (summary - All), normalized to DMSO ([1]; Short reporter, 20 µM, individual replicates, outliers excluded, DMSO = 1, listed as 4927): 0.58 and 0.57 and 0.49
- effect on uORF / leaky scanning reporters ([2]; 20uM (1Ai-5175 at 5uM), overnight): no differential effects were observed
- normalized to DMSO, 46 leaky, average ([2]; 46 leaky reporter, average of biological repeats): 0.645
- averages of FF vs RL 2 ([2]; 95nt experiment 240822, block FF-4927, reporter minus46, DMSO 0.736966): 0.4915 and 0.5526 and 0.4683
- averages of FF vs RL 2 ([2]; 95nt experiment 240822, block FF-4927, reporter minus 95, DMSO 0.940113): 0.5271 and 0.5757 and 0.7211
- averages of FF vs RL 2 ([2]; 95nt experiment 240822, block FF-4927, reporter ref, DMSO 1.84824): 1.232 and 1.092 and 1.217
- averages of FF vs RL ([2]; 95nt experiment, block FF-1 (c104), reporter minus46, DMSO 0.0248618): 0.02647
- FF vs RL ([2]; 95nt experiment, block FF-1 (c104), reporter minus 46, DMSO 2.74E-02, 2.23E-02): 2.77E-02 and 2.53E-02
- averages of FF vs RL ([2]; 95nt experiment, block FF-1 (c104), reporter minus 95, DMSO 0.0251627): 0.01437
- averages of FF vs RL ([2]; 95nt experiment, block FF-1 (c104), reporter ref, DMSO 0.0298915): 0.03122
- FF vs RL ([2]; 95nt experiment, block FF-1 (c104), reporter reference, DMSO 2.79E-02, 3.19E-02): 2.79E-02 and 3.45E-02
- FF vs RL ([2]; 95nt experiment, block FF-1 (c131), reporter minus 46, DMSO 0.17626, 0.185518): 0.07695 and 0.08587
- averages of FF vs RL ([2]; 95nt experiment, block FF-1 (c131), reporter minus46, DMSO 0.180889): 0.08141
- FF vs RL ([2]; 95nt experiment, block FF-1 (c131), reporter minus 46 plus 50, DMSO 0.437858, 0.481275): 0.1444 and 0.1903
- averages of FF vs RL ([2]; 95nt experiment, block FF-1 (c131), reporter minus 95, DMSO 0.459566): 0.1674
- averages of FF vs RL ([2]; 95nt experiment, block FF-1 (c131), reporter ref, DMSO 0.345569): 0.1753
- FF vs RL ([2]; 95nt experiment, block FF-1 (c131), reporter reference, DMSO 0.39984, 0.291299): 0.2058 and 0.1448
- averages of FF vs RL 2 ([2]; 95nt experiment, block FF-2 (c113), reporter minus46, DMSO 0.0506669): 0.02855
- FF vs RL 2 ([2]; 95nt experiment, block FF-2 (c113), reporter minus 46, DMSO 3.43E-02, 5.07E-02): 3.02E-02 and 2.69E-02
- FF vs RL 2 ([2]; 95nt experiment, block FF-2 (c113), reporter minus 46 plus 50, DMSO 3.05E-02, 1.38E-02): 2.74E-02 and 1.69E-02
- averages of FF vs RL 2 ([2]; 95nt experiment, block FF-2 (c113), reporter minus 95, DMSO 0.0221428): 0.02213
- averages of FF vs RL 2 ([2]; 95nt experiment, block FF-2 (c113), reporter ref, DMSO 0.0383109): 0.03757
- FF vs RL 2 ([2]; 95nt experiment, block FF-2 (c113), reporter reference, DMSO 3.69E-02, 3.97E-02): 3.81E-02 and 3.70E-02
- normalized to DMSO, -46, average ([2]; -46 reporter, average of biological repeats): 0.655
- ff/rl, 46 leaky reporter ([2]; experiment 13.03.24, single replicates, not normalized to DMSO, listed as 4927): 5.93E-02 and 2.78E-02 and 4.13E-02
- 95nt from uORF to main ORF experiment, minus46, average (DMSO = 1) ([2]; minus46 reporter, average): 0.6884
- reporter activity norm to DMSO, minus 95 ([2]; minus 95 (nt) reporter, 95nt from uORF to main ORF experiment, Figure 4N source data, replicate experiments, DMSO = 1): 0.5607 and 0.9992
- 95nt from uORF to main ORF experiment, minus 95nt, average (DMSO = 1) ([2]; minus 95nt reporter, average): 0.6458
- 95nt from uORF to main ORF experiment, ref, average (DMSO = 1) ([2]; ref reporter, average): 0.7413
- normalized to DMSO, refference, average ([2]; refference reporter, average of biological repeats): 0.742
- normalized to DMSO, refference, biological repeats ([2]; refference reporter, biological repeats 1-4, listed as 4927): 0.773 and 0.935 and 0.825
- normalize to DMSO, average ([2]; reporter 46, experiment 12.3.24, DMSO = 1): 0.7887
- normalize to DMSO, average ([2]; reporter 46, experiment 13.3.24, DMSO = 1): 0.5542
- normalize to DMSO, average ([2]; reporter 46 leaky, experiment 12.3.24, DMSO = 1): 0.7519
- normalize to DMSO, average ([2]; reporter 46 leaky, experiment 13.3.24, DMSO = 1): 0.5035
- normalized to DMSO, single replicates ([2]; reporter 46 leaky, experiment 13.3.24, listed as 4927): 6.97E-01 and 3.27E-01 and 4.86E-01
- normalized to DMSO, single replicates ([2]; reporter normal (refference), experiment 13.3.24, listed as 4927): 6.73E-01 and 9.77E-01
- normalize to DMSO, average ([2]; reporter refference, experiment 12.3.24, DMSO = 1): 0.8543
- RPS10-eIF1A PLA interaction signal [3]: reduced the interaction but to a lesser extent
- WT eIF1A IC50 (eIF1A): No binding
- IC50 concentration (µM), WT eIF1A (eIF1A; summary table, fluorescence binding assay): No binding
- near-cognate start codon translation [4]: increased translation from near-cognate AUG starting codons
- CUG vs AUG (%) ([4]; CUG start codon reporter relative to AUG reporter (AUG = 100), compound at 20uM (summary head), single-experiment calculation): 7.488%
- GUG vs AUG (%) ([4]; GUG start codon reporter relative to AUG reporter (AUG = 100), compound at 20uM (summary head), single-experiment calculation): 2.5747%
- average CUG and GUG ([4]; NUG experiment): 6.257
- CUG Average ([4]; NUG experiment, CUG vs AUG reporter): 9.333
- GUG Average ([4]; NUG experiment, GUG vs AUG reporter): 3.18
- NUG (Final data, Fig. 1E) ([4]; average CUG and GUG relative to DMSO, 20 µM overnight): 1.387
- GUG vs AUG data (%) ([4]; compound at 20uM, individual repeat, listed as 4927): 4.37% and 2.52% and 2.65%
- GUG vs AUG (%) Average ([4]; compound at 20uM, summary average of repeats, DMSO control average […]): 3.18%
- calculation: CUG (AUG = 100) ([4]; listed as 4927): 9.358 and 9.014
- calculation: GUG (AUG = 100) ([4]; listed as 4927): 4.366 and 4.155
- binding of RPS10 (RPS10): binds only RPS10
- binding to native and denatured Rps10 (RPS10; 4M Urea): binding was detected with the native but not denatured Rps10
- IC50 (RPS10; read-out: IC50 (line under RPS10 binding data)): 6.1 µM
- IC50 (RPS10; read-out: IC50 concentration (µM), RPS10, summary table, fluorescence binding assay): 6.1 µM
- IC50 (RPS10; read-out: RPS10 IC50): 6.1 µM
- effect on reporter mRNA levels [5]: did not exhibit any apparent effect on the mRNA levels

Reference: PMC12216609, “Inhibitors of eIF1A-ribosome interaction unveil uORF-dependent regulation of translation initiation and antitumor and antiviral effects” (The EMBO Journal, 2025)
